Target: T1, GST-hBVR fusion protein, wild type (human biliverdin reductase fused to glutathione-S-transferase)
T1 chain: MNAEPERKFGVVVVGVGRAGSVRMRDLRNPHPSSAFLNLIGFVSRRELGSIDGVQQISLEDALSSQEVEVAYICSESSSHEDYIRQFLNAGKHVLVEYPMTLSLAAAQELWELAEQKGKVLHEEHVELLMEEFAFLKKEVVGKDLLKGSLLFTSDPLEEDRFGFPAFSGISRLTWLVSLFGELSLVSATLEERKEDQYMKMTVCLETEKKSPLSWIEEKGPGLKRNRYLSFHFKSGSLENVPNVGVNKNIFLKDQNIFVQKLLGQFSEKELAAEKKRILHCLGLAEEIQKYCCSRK

B1: Insulin receptor beta (IRK), 48 kDa cytoplasmic domain of the beta-subunit (protein)
chain: RKRQPDGPLGPLYASSNPEYLSASDVFPCSVYVPDEWEVSREKITLLRELGQGSFGMVYEGNARDIIKGEAETRVAVKTVNESASLRERIEFLNEASVMKGFTCHHVVRLLGVVSKGQPTLVVMELMAHGDLKSYLRSLRPEAENNPGRPPPTLQEMIQMAAEIADGMAYLNAKKFVHRDLAARNCMVAHDFTVKIGDFGMTRDIYETDYYRKGGKGLLPVRWMAPESLKDGVFTTSSDMWSFGVVLWEITSLAEQPYQGLSNEQVLKFVMDGGYLDQPDNCPERVTDLMRMCWQFNPKMRPTFLEIVNLLKDDLHPSFPEVSFFHSEENKAPESEELEMEFEDMENVPLDRSSHCQREEAGGRDGGSSLGFKRSYEEHIPYTHMNGGKKNGRILTLPRSNPS
B1 was tested, and the “BVR phosphorylation by IRK (32P, SDS-PAGE, autoradiography, time course)” value was “in the presence of IRK, BVR phosphorylation was detected when assessed at 1 h, and gradually increased up to 4 h”.

From patent US20130344053
